experiment: in vitro; design: dose or concentration left out as unconfirmed; details: mouse, liver microsomes

CLint scaled at 4 h [mL/min/kg] | Structure (SMILES)
36.7 | CN(C)c1ccc(CC(=O)N2CCN(c3ccc(C#N)nn3)CC2)cc1
301 | CC(c1ccc(CC(=O)N2CCN(c3ccc(C#N)nn3)CC2)cc1)C(F)(F)F (stereo not drawn)
64.5 | CC(CF)c1ccc(CC(=O)N2CCN(c3ccc(C#N)nn3)CC2)cc1 (stereo not drawn)

Source: ChEMBL document CHEMBL5576147, “Development of Brain Penetrant Pyridazine Pantothenate Kinase Activators” (J Med Chem, 2024)
